In patent US12544356B2, “Combination of a chromene compound and a second active agent” (EUCLISES PHARMACEUTICALS, INC., priority 2016, dated 2026):

Experiment: Body weight in HT-29 xenograft study (Example 1)
Format: in vivo, CB17SCID male mice
Details: erlotinib 50 mg/kg oral daily
Experimental: 48 CB17SCID male mice were implanted with 2.5×10^6 HT29 cells. Growth of the tumor was calculated for each animal using a caliper and the equation: V=π×ab^2/6.
Mouse weight and tumor volume measurements were taken on days 0, 3, 6, 9, 12, 15, 18, 21, and 22 following randomization.

Work on `C#Cc1cccc(Nc2ncnc3cc(OCCOC)c(OCCOC)cc23)c1` [Erlotinib, erlotinib, reference compound] yielded a Body weight (Day 6) of 22.3 g, a Body weight (Day 9) of 20.6 g and a Body weight (Day 12) of 20.6 g. The Body weight (Day 18) was 20.7 g and the Body weight (Day 22) was 21.2 g.
